# Data as given in PubChem BioAssay AID602252 (Broad Institute, 2012).
# The list shows a part of the results, in another mix than the full data. Activity calls are given as the source filed them.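 Rule for the calls: active = mean inhibition of at least 30% with at least half of replicates also reaching 30%; inconclusive = no clear call, values can overlap the other calls; inactive = the rest.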
# Target: Golgi-associated PDZ and coiled-coil motif-containing protein (Homo sapiens) (UniProt Q9HD26)
# Assay: blockade of CAL PDZ-reporter peptide interaction – biochemical, fluorescence polarization, untagged CAL PDZ, HTS, primary screen (AID 602252);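 note: 0% = DMSO neutral control and 100% = excess unlabeled competitor peptide PRC23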
# Details: purified CAL PDZ, TMR-peptide fluorescence polarization, 1 h; at 24.9 µM; hits give high values
row,Compound,inhibition
1,CCC(=O)N(c1ccccc1)C1(COC)CCN(CCn2nnn(CC)c2=O)CC1,inactive: 2.29%
2,CCC(=O)N(c1ccccc1)C1(COC)CCN(CCc2cccs2)CC1,inactive: 0.136%
